Binding of CDR-mutated scFvs to a peptide of the spike HR2 region

The measurements come from Li et al. 2023 (doi:10.1038/s41467-023-39022-2) through the FLAb antibody collection.

Target: peptide PDVDLGDISGINAS, taken from heptad repeat 2 (HR2) of SARS-CoV-2 spike.

Parent: Ab-14, a human scFv built as VH, three GGGGS repeats, VL. Only the CDRs of the light chain vary.
VH: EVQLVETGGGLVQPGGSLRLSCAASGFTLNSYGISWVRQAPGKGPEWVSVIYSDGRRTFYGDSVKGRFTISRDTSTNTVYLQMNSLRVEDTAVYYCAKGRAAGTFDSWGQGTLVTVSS
VL: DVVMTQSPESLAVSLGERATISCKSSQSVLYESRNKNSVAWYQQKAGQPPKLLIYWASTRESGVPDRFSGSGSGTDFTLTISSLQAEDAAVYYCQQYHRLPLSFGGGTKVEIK

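The parent was found by panning a naive human phage display library on the peptide. These sequences belong to a second round, designed from the earlier measurements on random variants of the parent. Group labels follow the data file (Ctrl: baseline library sampled from a position-specific scoring matrix, with some repeated check sequences; GP: Gaussian process model; Gen: genetic algorithm; a sequence that several methods proposed may carry one label only). The scFvs were displayed on barcoded MATa yeast, the peptide on MATalpha yeast. Pairs that bind mate more often; barcode pairs of the diploids are counted by sequencing. Read counts were normalised to the haploid input and turned into Kd by a linear fit to BCL2-family pairs of known affinity, for each replicate. Each pool was mated in six replicate cultures.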

Changes read parent residue, position, new residue, counted from the first residue of the VL shown. The read-out is the apparent dissociation constant on a log10 scale (nM): the lower, the stronger. "n.d." means that the variant was in the library but no mating with the target was seen in that replicate; the authors take this as a sign of poor binding, and no number exists. In the paper, a design with two or fewer of six values counts as a poor binder. A sequence that the file lists under several names has all its replicates listed entry by entry, parted by semicolons. As a blank, each scFv also met three strains without target: over all light chain designs, 4% of these pairings were detected, typically at 2.64 and seldom below 1.59. For each scFv, signals with the empty controls are counted beside the result, with their mean in brackets. Values of this round are not directly comparable with the first-round values of the same sequences.

| # | changes | group | log10 Kd (nM) by replicate | empty controls |
|---|---|---|---|---|
| 1 | V29G+K36M+W56D | Ctrl | n.d. / 1.20 / n.d. / 1.80 / 0.66 / 0.96 | 1 of 18 (2.25) |
| 2 | Q27E+S33D | Ctrl | n.d. / n.d. / n.d. / 2.60 / n.d. / n.d. | 0 of 18 |
| 3 | Y31M+R34L+W56G+H98N | Ctrl | 0.13 / 0.12 / 0.07 / 0.00 / -0.13 / 0.13 | 0 of 18 |
| 4 | V29P+W56S+S62L+Y97H | Ctrl | 0.66 / 0.96 / 0.55 / 0.65 / 0.73 / 0.51 | 0 of 18 |
| 5 | V29A+W56E | Ctrl | 0.38 / -0.05 / 0.07 / 0.01 / 0.22 / 0.15 | 2 of 18 (2.28) |
| 6 | S25K+Q96K | Ctrl | n.d. / n.d. / n.d. / n.d. / n.d. / n.d. | 0 of 18 |
| 7 | S28P+Y31R | Ctrl | n.d. / n.d. / n.d. / n.d. / n.d. / n.d. | 0 of 18 |
| 8 | S25F+A57G | Ctrl | 0.66 / 0.52 / 0.73 / 0.73 / 0.63 / 0.92 | 0 of 18 |
| 9 | T59H+Q95P | Ctrl | n.d. / n.d. / n.d. / n.d. / n.d. / n.d. | 0 of 18 |
| 10 | S25I+S33F+K36L+W56N+S58L+Q96E | Ctrl | 0.10 / -0.19 / -0.11 / -0.03 / 0.11 / -0.03 | 1 of 18 (2.12) |
| 11 | S25V | Ctrl+GP_Gen | 1.01 / 0.93 / 0.48 / 0.91 / 1.08 / 0.89; 1.33 / 1.42 / 1.01 / 1.81 / 1.15 / 1.07 | 6 of 36 (2.80) |
| 12 | S33E+W56A+S58D+L100W | Ctrl | 2.71 / 2.10 / 2.44 / 2.04 / 2.75 / 2.29 | 1 of 18 (2.39) |
| 13 | W56Q+S62V+Y97L | Ctrl | 1.07 / n.d. / 0.23 / n.d. / n.d. / 1.41 | 0 of 18 |
| 14 | S26E+L30H+W56H | Ctrl | 0.83 / 0.99 / 0.90 / 1.01 / 1.18 / 0.69 | 0 of 18 |
| 15 | S25D+Y31G+R34F+S38A+S62A+S103D | Ctrl | n.d. / n.d. / n.d. / n.d. / n.d. / n.d. | 0 of 18 |
| 16 | Q27T+A57G | Ctrl | 2.21 / 2.73 / 1.81 / 2.17 / n.d. / n.d. | 0 of 18 |
| 17 | S26K+R34L+W56E+T59C+H98F | Ctrl | 1.08 / 1.13 / 1.07 / 0.70 / 0.78 / 1.01 | 0 of 18 |
| 18 | S25L+W56Q+R60P | Ctrl | -0.12 / -0.03 / -0.18 / -0.36 / -0.29 / -0.10 | 2 of 18 (3.58) |
| 19 | S25F+L30M+W56Q | Ctrl | 0.28 / 0.38 / 0.64 / 0.19 / 0.33 / 0.27 | 0 of 18 |
| 20 | S25F+L30W+Y31D | Ctrl | 1.51 / 1.86 / 1.34 / 0.84 / 0.76 / 1.57 | 2 of 18 (3.09) |
| 21 | S33E+A57G | Ctrl | 1.67 / 1.25 / 2.22 / 1.96 / 1.63 / 2.02 | 1 of 18 (1.49) |
| 22 | S26V+L102A | Ctrl | n.d. / n.d. / n.d. / 2.60 / n.d. / n.d. | 0 of 18 |
| 23 | S26E+R34T+R60A+L102T | Ctrl | n.d. / n.d. / n.d. / n.d. / n.d. / n.d. | 1 of 18 (1.68) |
| 24 | S26M+V29W+S38G+W56N | Ctrl | -0.05 / -0.28 / -0.35 / -0.23 / -0.54 / -0.11 | 0 of 18 |
| 25 | S25M+R34A+N35E+N37I+P101K | Ctrl | n.d. / n.d. / n.d. / n.d. / n.d. / n.d. | 0 of 18 |
| 26 | K24Q+S26G+Y31G | Ctrl | n.d. / 1.95 / n.d. / 1.44 / n.d. / 1.32 | 2 of 18 (2.17) |
| 27 | Q95K+L102Y | Ctrl | n.d. / n.d. / n.d. / n.d. / n.d. / n.d. | 0 of 18 |
| 28 | K36A+W56D+S62Q | Ctrl | -0.13 / -0.63 / -0.49 / -0.05 / -0.41 / -0.33 | 0 of 18 |
| 29 | K24F+L30G+R34E | Ctrl | 1.54 / 1.50 / 1.44 / 1.24 / 2.04 / 1.14 | 3 of 18 (2.20) |
| 30 | K36R+H98A | Ctrl | 0.66 / 1.27 / 0.54 / 0.89 / 0.66 / 0.62 | 1 of 18 (2.73) |
| 31 | Q27P+Q95C | Ctrl | n.d. / n.d. / n.d. / n.d. / n.d. / n.d. | 1 of 18 (1.92) |

Top 3 of the variants detected in all replicates, tightest first:

changes	group	log10 Kd (nM) by replicate	empty controls
K36A+W56D+S62Q	Ctrl	-0.13 / -0.63 / -0.49 / -0.05 / -0.41 / -0.33	0 of 18
S26M+V29W+S38G+W56N	Ctrl	-0.05 / -0.28 / -0.35 / -0.23 / -0.54 / -0.11	0 of 18
S25L+W56Q+R60P	Ctrl	-0.12 / -0.03 / -0.18 / -0.36 / -0.29 / -0.10	2 of 18 (3.58)